This note sets out measurements from ChEMBL document CHEMBL6096671, “Discovery of VU6024578/BI02982816: An mGlu1 Positive Allosteric Modulator with Efficacy in Preclinical Antipsychotic and Cognition Models” (J Med Chem, 2024).

The chains behind the UniProt entries cited, without tags or fusion partners. Where a name states a change or a piece, a line headed by the entry shows the natural chain unless it says otherwise.
UniProt Q13255: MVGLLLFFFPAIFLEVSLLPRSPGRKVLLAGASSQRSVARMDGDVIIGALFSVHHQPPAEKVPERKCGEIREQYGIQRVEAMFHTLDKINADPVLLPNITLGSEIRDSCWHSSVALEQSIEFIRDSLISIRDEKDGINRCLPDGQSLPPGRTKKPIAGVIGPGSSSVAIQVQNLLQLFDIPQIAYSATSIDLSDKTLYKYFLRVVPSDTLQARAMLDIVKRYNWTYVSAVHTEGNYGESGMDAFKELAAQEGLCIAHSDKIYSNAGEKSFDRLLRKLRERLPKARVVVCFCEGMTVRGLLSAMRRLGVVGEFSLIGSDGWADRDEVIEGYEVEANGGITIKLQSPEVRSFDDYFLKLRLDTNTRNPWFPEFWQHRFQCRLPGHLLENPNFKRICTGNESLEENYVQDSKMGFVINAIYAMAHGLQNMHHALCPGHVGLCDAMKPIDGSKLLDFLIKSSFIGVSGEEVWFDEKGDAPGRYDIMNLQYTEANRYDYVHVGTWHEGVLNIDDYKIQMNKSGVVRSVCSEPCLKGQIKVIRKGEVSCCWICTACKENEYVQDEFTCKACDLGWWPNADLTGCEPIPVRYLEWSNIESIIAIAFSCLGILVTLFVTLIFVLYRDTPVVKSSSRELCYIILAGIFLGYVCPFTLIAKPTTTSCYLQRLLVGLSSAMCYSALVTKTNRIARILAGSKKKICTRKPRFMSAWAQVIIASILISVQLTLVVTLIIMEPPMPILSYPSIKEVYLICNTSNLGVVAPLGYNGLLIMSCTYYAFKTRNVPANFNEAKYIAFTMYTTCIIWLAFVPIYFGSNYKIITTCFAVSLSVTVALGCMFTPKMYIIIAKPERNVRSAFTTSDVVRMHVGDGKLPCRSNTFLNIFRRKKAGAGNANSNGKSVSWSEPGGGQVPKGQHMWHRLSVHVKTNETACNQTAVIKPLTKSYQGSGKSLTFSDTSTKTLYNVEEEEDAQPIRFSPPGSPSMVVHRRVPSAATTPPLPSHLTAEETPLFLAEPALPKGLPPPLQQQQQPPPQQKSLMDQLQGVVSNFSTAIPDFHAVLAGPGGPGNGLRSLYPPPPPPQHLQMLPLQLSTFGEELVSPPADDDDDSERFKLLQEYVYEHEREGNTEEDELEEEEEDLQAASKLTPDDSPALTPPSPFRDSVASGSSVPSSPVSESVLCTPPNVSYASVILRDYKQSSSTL

This test concerns the target Metabotropic glutamate receptor 1 (Homo sapiens, UniProt Q13255). In words: Positive allosteric modulation of tetracycline-inducible wild type human mGLU1 receptor expressed in human T-REx-293 cells assessed as maximum efficacy incubated for 2.5 mins by Fluo-4 AM dye based calcium mobilization assay relative to glutamate. Format: functional, cell-based. A general note: A change in cytosolic calcium serves as a functional read-out for many receptors and channels.

Active and inactive are the calls of the source. The calls are words filed in the database; no cut-off is given here.

On to `Cn1nccc1-c1ccc(Cl)c(C(=O)NCc2cnn3ccccc23)c1`, for which the Emax result was “inactive”.
